Holding throughout (format): biochemical
Common to all, as to details: D-(+)-Galactose 80 mM, ONPG 10.66 mM, pH 6.0, 30 min at 23° C., ratio of activity with/without galactose relative to wild type SEQ ID NO: 1 (IF=1.0), above 1 = decreased galactose inhibition

Protein sequences, listed by entry. Tags and fused reporters are not part of them.
UniProt A4K5H9, entry or part of it E34D: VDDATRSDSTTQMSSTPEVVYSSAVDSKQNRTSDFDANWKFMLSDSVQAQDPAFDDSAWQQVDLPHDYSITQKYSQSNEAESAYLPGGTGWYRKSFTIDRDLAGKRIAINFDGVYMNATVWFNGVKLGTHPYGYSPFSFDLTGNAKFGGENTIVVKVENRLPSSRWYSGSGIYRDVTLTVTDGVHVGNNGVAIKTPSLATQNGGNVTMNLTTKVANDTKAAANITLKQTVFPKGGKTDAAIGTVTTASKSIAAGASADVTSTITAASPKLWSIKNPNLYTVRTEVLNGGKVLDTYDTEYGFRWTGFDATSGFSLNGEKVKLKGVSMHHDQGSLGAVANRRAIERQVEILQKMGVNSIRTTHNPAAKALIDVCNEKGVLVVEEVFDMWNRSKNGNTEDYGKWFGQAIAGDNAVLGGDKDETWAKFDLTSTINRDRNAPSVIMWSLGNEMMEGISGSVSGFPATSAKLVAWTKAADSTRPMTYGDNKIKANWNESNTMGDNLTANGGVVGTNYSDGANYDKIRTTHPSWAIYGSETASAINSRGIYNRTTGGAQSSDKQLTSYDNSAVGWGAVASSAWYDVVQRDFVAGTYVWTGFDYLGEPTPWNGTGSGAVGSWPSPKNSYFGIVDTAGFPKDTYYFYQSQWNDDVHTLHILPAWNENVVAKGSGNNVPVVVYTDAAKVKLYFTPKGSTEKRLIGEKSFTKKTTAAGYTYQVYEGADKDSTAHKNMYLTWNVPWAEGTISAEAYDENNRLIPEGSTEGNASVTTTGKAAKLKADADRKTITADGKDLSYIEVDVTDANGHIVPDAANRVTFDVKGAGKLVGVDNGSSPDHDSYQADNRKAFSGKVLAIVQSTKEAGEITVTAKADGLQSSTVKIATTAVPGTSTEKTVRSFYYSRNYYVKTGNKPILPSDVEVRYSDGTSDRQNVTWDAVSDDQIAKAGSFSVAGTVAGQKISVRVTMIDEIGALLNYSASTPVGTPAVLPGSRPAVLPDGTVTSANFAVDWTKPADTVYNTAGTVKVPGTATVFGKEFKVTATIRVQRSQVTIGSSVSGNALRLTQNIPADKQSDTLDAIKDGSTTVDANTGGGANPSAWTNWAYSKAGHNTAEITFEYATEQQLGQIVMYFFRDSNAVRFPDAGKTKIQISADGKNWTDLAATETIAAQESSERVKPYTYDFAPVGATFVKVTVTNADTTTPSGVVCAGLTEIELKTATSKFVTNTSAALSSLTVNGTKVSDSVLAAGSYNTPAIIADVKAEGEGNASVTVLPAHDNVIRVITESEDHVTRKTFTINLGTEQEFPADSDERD
UniProt A4K5H9, entry or part of it V33H: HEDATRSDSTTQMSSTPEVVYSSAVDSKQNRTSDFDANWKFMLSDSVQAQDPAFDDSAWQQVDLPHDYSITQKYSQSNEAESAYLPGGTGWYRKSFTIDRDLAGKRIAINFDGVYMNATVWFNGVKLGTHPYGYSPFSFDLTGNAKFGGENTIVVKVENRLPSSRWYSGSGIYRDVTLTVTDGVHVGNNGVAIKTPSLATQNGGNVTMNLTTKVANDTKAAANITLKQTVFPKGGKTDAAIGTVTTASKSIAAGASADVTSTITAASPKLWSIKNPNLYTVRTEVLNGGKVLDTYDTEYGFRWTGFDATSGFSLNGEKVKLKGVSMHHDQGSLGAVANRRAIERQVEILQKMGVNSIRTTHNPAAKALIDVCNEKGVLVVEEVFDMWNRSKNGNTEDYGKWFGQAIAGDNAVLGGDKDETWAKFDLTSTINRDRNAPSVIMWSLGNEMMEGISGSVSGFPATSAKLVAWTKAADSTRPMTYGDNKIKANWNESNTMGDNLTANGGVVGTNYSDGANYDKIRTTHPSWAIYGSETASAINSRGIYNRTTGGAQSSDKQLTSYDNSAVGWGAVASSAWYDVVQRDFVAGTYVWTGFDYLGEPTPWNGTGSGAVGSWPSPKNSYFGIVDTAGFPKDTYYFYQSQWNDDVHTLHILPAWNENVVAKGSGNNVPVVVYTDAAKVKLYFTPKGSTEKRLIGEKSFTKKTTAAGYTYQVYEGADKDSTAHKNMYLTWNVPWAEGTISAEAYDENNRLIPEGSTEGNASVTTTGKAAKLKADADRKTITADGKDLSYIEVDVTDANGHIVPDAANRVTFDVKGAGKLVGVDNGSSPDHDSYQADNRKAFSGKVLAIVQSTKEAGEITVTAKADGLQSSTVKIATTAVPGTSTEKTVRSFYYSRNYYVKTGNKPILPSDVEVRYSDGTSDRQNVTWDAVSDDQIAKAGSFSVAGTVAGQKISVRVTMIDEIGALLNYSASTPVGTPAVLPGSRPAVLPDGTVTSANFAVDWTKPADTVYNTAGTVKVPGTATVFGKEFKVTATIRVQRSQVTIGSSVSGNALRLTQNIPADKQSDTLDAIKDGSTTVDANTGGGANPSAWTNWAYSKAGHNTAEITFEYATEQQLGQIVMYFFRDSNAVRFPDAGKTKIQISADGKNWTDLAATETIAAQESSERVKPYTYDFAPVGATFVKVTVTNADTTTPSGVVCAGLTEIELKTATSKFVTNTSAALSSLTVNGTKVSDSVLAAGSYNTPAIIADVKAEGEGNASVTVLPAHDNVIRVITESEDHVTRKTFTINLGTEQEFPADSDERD
UniProt A4K5H9, entry or part of it V33L: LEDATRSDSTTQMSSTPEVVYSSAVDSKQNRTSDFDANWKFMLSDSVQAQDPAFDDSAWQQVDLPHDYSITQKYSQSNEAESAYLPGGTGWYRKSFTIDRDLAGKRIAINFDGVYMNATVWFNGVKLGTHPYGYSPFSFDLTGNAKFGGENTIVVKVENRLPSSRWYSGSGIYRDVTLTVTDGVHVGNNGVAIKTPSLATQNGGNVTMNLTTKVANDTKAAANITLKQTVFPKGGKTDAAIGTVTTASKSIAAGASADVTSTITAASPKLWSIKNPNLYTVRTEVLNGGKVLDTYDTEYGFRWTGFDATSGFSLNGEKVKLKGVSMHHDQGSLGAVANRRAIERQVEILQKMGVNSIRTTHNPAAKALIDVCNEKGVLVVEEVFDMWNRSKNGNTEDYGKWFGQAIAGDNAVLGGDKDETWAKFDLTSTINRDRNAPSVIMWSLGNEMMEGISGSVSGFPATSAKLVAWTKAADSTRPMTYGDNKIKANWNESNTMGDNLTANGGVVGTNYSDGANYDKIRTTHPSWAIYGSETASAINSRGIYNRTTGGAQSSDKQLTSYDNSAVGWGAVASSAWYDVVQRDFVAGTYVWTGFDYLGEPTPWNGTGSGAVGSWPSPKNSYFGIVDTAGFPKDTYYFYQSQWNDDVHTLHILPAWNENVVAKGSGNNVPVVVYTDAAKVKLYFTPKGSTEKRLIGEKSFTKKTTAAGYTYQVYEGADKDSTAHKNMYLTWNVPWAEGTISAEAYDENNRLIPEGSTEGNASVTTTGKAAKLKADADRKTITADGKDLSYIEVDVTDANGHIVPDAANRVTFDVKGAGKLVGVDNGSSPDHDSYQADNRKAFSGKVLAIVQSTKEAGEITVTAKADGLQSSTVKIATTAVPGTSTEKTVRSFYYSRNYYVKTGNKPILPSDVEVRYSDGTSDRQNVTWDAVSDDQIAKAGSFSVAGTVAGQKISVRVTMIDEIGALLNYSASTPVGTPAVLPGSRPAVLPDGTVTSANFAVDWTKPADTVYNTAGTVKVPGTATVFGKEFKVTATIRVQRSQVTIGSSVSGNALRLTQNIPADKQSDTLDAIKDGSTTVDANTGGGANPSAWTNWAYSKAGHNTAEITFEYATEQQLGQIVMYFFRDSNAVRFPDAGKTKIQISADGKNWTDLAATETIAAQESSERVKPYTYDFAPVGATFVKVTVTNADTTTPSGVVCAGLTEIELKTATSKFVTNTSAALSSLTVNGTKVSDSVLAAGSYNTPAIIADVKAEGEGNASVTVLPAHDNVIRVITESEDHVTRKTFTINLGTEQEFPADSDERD

Assay [1] addresses Bifidobacterium bifidum lactase (SEQ ID NO: 1) variant E2D (Bifidobacterium bifidum, UniProt A4K5H9, E34D). Here is the method:
(§1) Stop solution is added (Na2CO3, 10% w/v in H2O), and the absorbance at 405 nm is recorded. “Abs405 Galactose sample” is the absorbance for the lactase grown in assay solution, “Abs405 Galactose Blank” is the absorbance for non-inoculated assay solution, “Abs405 Reference sample” is the absorbance for the lactase grown in reference solution, and “Abs405 Reference Blank” is the absorbance for non-inoculated reference solution.

In assay [2] the target is Bifidobacterium bifidum lactase (SEQ ID NO: 1) variant V1H (Bifidobacterium bifidum, UniProt A4K5H9, V33H). Here is the method: as §1
Assay [3] has as its target Bifidobacterium bifidum lactase (SEQ ID NO: 1) variant V1L (Bifidobacterium bifidum, UniProt A4K5H9, V33L). The method, then:
as §1

The source of these data is patent publication US12359182B2, “Polypeptide variants” (Novozymes A/S, priority 2020, dated 2025).

In the case of `OC[C@H]1OC(O)[C@H](O)[C@@H](O)[C@H]1O` (stereo partly drawn) [D-(+)-Galactose], the “GI-IF (galactose inhibition assay improvement factor)” value is reported as 1.36 in assay [1], 1.31 in assay [2] and 1.35 in assay [3].
